The subject of this assay is MCF-7/NOD2 cells, MDP-induced IL-8 secretion. The experiment in a line: inhibition of NOD2-driven IL-8 release, SAR follow-up, MCF-7/NOD2 cells, MDP stimulus (AID 2260).

The structures appear in SMILES notation. Active and inactive are the calls of the source. No rule for the calls is given here.

A word on the IC50: it is the point on the concentration scale where inhibition reaches its midpoint.

For `Cc1ccc(S(=O)(=O)n2cnc3ccccc32)cc1`, the IC50 was inactive: > 5 µM.

The values are drawn from PubChem BioAssay AID2260 (Sanford-Burnham Center for Chemical Genomics, 2010).
